Experimental data published in US11186582B2, “Substituted [1,2,4]triazolo[1,5-a]pyrimidin-7-yl compounds as PDE2 inhibitors” (DART NEUROSCIENCE (CAYMAN) LTD., priority 2014, dated 2021).

Chains of the proteins cited; added tags and fusions are not shown. Residues count along the entry.
UniProt O00408, 2-941: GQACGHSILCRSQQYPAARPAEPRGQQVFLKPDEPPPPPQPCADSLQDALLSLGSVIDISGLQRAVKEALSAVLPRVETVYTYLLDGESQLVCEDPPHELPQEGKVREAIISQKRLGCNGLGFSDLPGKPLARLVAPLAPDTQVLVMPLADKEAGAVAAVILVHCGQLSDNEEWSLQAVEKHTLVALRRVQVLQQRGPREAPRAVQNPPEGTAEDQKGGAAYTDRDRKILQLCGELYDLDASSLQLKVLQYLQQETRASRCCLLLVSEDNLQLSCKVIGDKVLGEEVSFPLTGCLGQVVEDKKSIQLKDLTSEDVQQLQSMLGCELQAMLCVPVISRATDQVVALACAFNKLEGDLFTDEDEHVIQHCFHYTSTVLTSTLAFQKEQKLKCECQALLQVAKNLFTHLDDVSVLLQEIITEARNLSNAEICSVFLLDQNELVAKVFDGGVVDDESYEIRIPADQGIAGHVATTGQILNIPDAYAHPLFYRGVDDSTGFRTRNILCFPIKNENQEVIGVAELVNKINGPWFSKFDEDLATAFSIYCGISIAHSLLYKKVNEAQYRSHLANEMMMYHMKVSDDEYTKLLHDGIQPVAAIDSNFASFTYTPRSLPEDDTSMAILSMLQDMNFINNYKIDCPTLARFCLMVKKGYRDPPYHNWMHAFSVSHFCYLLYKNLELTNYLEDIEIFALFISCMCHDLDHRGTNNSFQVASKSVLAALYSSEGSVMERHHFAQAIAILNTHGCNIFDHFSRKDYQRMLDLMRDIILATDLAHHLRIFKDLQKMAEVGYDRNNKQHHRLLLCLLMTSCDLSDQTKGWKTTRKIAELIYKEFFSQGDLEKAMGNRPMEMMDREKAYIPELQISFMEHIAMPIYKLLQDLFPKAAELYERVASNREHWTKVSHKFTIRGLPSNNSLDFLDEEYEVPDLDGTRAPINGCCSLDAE

Each compound was assayed against FLAG-tagged PDE2A1 (amino acids 2-941) (Homo sapiens (Human), UniProt O00408) (assay: IMAP TR-FRET PDE2A phosphodiesterase enzymatic assay). Settings: not given.

| SMILES | IC50 [nM] |
| --- | --- |
| Cc1cc(C2CN(C(=O)c3ccccc3)CC(F)(F)C2)n2ncnc2n1 (centres unmarked) [Example 243, 1-Benzoyl-3,3-difluoro-5-{5-methyl-[1,2,4]triazolo[1,5-a]pyrimidin-7-yl}piperidine] | 100 to 1000 |
| Cc1cc(C2CN(C(=O)c3cccc(F)c3)CC(F)(F)C2)n2ncnc2n1 (centres unmarked) [Example 245, 3,3-Difluoro-1-[(3-fluorophenyl)carbonyl]-5-{5-methyl-[1,2,4]triazolo[1,5-a]pyrimidin-7-yl}piperidine] | 100 to 1000 |
| Cc1cc(C2CN(C(=O)c3ccc(C#N)cc3)CC(F)(F)C2)n2ncnc2n1 (centres unmarked) [Example 247, 4-[(3,3-Difluoro-5-{5-methyl-[1,2,4]triazolo[1,5-a]pyrimidin-7-yl}piperidin-1-yl)carbonyl]benzonitrile] | 1000 to 10000 |
| CCOc1cccc(C(=O)N2CC(c3cc(C)nc4ncnn34)CC(F)(F)C2)c1 (centres unmarked) [Example 248, 1-[(3-Ethoxyphenyl)carbonyl]-3,3-difluoro-5-{5-methyl-[1,2,4]triazolo[1,5-a]pyrimidin-7-yl}piperidine] | 100 to 1000 |
| Cc1cc(C2CN(C(=O)c3cccc(OC(F)(F)F)c3)CC(F)(F)C2)n2ncnc2n1 (centres unmarked) [Example 249, 3,3-Difluoro-5-{5-methyl-[1,2,4]triazolo[1,5-a]pyrimidin-7-yl}-1-{[3-(trifluoromethoxy)phenyl]carbonyl}piperidine] | 100 to 1000 |
| Cc1cc([C@H]2CN(C(=O)c3cccc(Br)c3)CCO2)n2ncnc2n1 [Example 250, (2R)-4-[(3-Bromophenyl)carbonyl]-2-{5-methyl-[1,2,4]triazolo[1,5-a]pyrimidin-7-yl}morpholine] | > 10000 |
| Cc1cc([C@H]2CN(C(=O)c3ccc(F)c(Br)c3)CCO2)n2ncnc2n1 [Example 251, (2R)-4-[(3-Bromo-4-fluorophenyl)carbonyl]-2-{5-methyl-[1,2,4]triazolo[1,5-a]pyrimidin-7-yl}morpholine] | 1000 to 10000 |
| Cc1cc([C@@H]2CN(C(=O)c3cc(Cl)cc(Cl)c3)CCO2)n2ncnc2n1 [Example 252, (2S)-4-[(3,5-Dichlorophenyl)carbonyl]-2-{5-methyl-[1,2,4]triazolo[1,5-a]pyrimidin-7-yl}morpholine] | 100 to 1000 |
| Cc1cc([C@H]2CN(C(=O)c3cc(Cl)cc(Cl)c3)CCO2)n2ncnc2n1 [Example 255, (2R)-4-[(3,5-Dichlorophenyl)carbonyl]-2-{5-methyl-[1,2,4]triazolo[1,5-a]pyrimidin-7-yl}morpholine] | > 10000 |
| Cc1cc(C2CN(C(=O)c3cc(F)cc(Br)c3)CCO2)n2ncnc2n1 (centres unmarked) [Example 256, 4-[(3-Bromo-5-fluorophenyl)carbonyl]-2-{5-methyl-[1,2,4]triazolo[1,5-a]pyrimidin-7-yl}morpholine] | 100 to 1000 |
| Cc1cc(C2CN(C(=O)c3cccc(S(F)(F)(F)(F)F)c3)CC(F)(F)C2)n2ncnc2n1 (centres unmarked) [Example 260, 3,3-Difluoro-5-{5-methyl-[1,2,4]triazolo[1,5-a]pyrimidin-7-yl}-1-{[3-(pentafluorosulfanyl)phenyl]carbonyl}piperidine] | 100 to 1000 |
| Cc1cc(C2CN(C(=O)c3cccc(S(F)(F)(F)(F)F)c3)CCO2)n2ncnc2n1 (centres unmarked) [Example 261, 2-{5-Methyl-[1,2,4]triazolo[1,5-a]pyrimidin-7-yl}-4-{[3-(pentafluorosulfanyl)phenyl]carbonyl}morpholine] | 1000 to 10000 |
| Cc1cc(C2CN(C(=O)c3cc(Cl)ccn3)CCO2)n2ncnc2n1 (centres unmarked) [Example 264, 4-[(4-Chloropyridin-2-yl)carbonyl]-2-{5-methyl-[1,2,4]triazolo[1,5-a]pyrimidin-7-yl}morpholine] | 1000 to 10000 |
| Cc1cc(C2CN(C(=O)c3cc(Cl)ccn3)CC(F)(F)C2)n2ncnc2n1 (centres unmarked) [Example 265, 4-Chloro-2-[(3,3-difluoro-5-{5-methyl-[1,2,4]triazolo[1,5-a]pyrimidin-7-yl}piperidin-1-yl)carbonyl]pyridine] | 100 to 1000 |
| Cc1cc(C2CN(C(=O)c3cccnc3Oc3ccc(Cl)cc3)CC(F)(F)C2)n2ncnc2n1 (centres unmarked) [Example 266, 2-(4-Chlorophenoxy)-3-[(3,3-difluoro-5-{5-methyl-[1,2,4]triazolo[1,5-a]pyrimidin-7-yl}piperidin-1-yl)carbonyl]pyridine] | 100 to 1000 |
| Cc1cc(C2CN(C(=O)c3ccc(C(F)(F)F)nc3C)CCO2)n2ncnc2n1 (centres unmarked) [Example 267, 4-{[2-Methyl-6-(trifluoromethyl)pyridin-3-yl]carbonyl}-2-{5-methyl-[1,2,4]triazolo[1,5-a]pyrimidin-7-yl}morpholine] | > 10000 |
| Cc1cc(C2CN(C(=O)c3ccc(C(F)(F)F)nc3C)CC(F)(F)C2)n2ncnc2n1 (centres unmarked) [Example 272, 3-(3,3-Difluoro-5-{5-methyl-[1,2,4]triazolo[1,5-a]pyrimidin-7-yl}piperidine-1-carbonyl)-2-methyl-6-(trifluoromethyl)pyridine] | 1000 to 10000 |

Same assay, conditions: IMAP TR-FRET, 200 nM FAM-cAMP substrate, 11-point half-log dose-response

| SMILES | PDE2 (pIC50) |
| --- | --- |
| Cc1cc([C@@H]2CN(C(=O)c3ccc4ccccc4c3)CCO2)n2ncnc2n1 [Example 242, (2S)-2-{5-Methyl-[1,2,4]triazolo[1,5-a]pyrimidin-7-yl}-4-[(naphthalen-2-yl)carbonyl]morpholine] | >7 |
| Cc1cc([C@@H]2CN(C(=O)c3cccc(Br)c3)CCO2)n2ncnc2n1 [Example 253, (2S)-4-[(3-Bromophenyl)carbonyl]-2-{5-methyl-[1,2,4]triazolo[1,5-a]pyrimidin-7-yl}morpholine] | >7 |
| Cc1cc([C@@H]2CN(C(=O)c3ccc(F)c(Br)c3)CCO2)n2ncnc2n1 [Example 254, (2S)-4-[(3-Bromo-4-fluorophenyl)carbonyl]-2-{5-methyl-[1,2,4]triazolo[1,5-a]pyrimidin-7-yl}morpholine] | >7 |
| Cc1cc(C2CN(C(=O)c3cc(Br)cc(Br)c3)CCO2)n2ncnc2n1 (centres unmarked) [Example 257, 4-[(3,5-Dibromophenyl)carbonyl]-2-{5-methyl-[1,2,4]triazolo[1,5-a]pyrimidin-7-yl}morpholine] | >7 |
| Cc1cc(C2CN(C(=O)c3cc(F)cc(Br)c3)CC(F)(F)C2)n2ncnc2n1 (centres unmarked) [Example 258, 1-[(3-Bromo-5-fluorophenyl)carbonyl]-3,3-difluoro-5-{5-methyl-[1,2,4]triazolo[1,5-a]pyrimidin-7-yl}piperidine] | >7 |
| Cc1cc(C2CN(C(=O)c3cc(Br)cc(Br)c3)CC(F)(F)C2)n2ncnc2n1 (centres unmarked) [Example 259, 1-[(3,5-Dibromophenyl)carbonyl]-3,3-difluoro-5-{5-methyl-[1,2,4]triazolo[1,5-a]pyrimidin-7-yl}piperidine] | >7 |
| Cc1cc(C2CN(C(=O)c3ccc(C)c(Br)c3)CC(F)(F)C2)n2ncnc2n1 (centres unmarked) [Example 262, 1-[(3-Bromo-4-methylphenyl)carbonyl]-3,3-difluoro-5-{5-methyl-[1,2,4]triazolo[1,5-a]pyrimidin-7-yl}piperidine] | >7 |
| Cc1cc(C2CN(C(=O)c3ccc(C)c(Br)c3)CCO2)n2ncnc2n1 (centres unmarked) [Example 263, 4-[(3-Bromo-4-methylphenyl)carbonyl]-2-{5-methyl-[1,2,4]triazolo[1,5-a]pyrimidin-7-yl}morpholine] | >7 |
| Cc1cc([C@H]2CN(C(=O)c3cc(F)cc(Br)c3)CC(F)(F)C2)n2ncnc2n1 [Example 270, (5R)-1-(3-Bromo-5-fluorobenzoyl)-3,3-difluoro-5-{5-methyl-[1,2,4]triazolo[1,5-a]pyrimidin-7-yl}piperidine] | >7 |
| Cc1cc([C@@H]2CN(C(=O)c3cc(F)cc(Br)c3)CC(F)(F)C2)n2ncnc2n1 [Example 271, (5S)-1-(3-Bromo-5-fluorobenzoyl)-3,3-difluoro-5-{5-methyl-[1,2,4]triazolo[1,5-a]pyrimidin-7-yl}piperidine] | >7 |
| Cc1cc([C@@H]2CN(C(=O)c3cc(Br)cc(Br)c3)CCO2)n2ncnc2n1 [Example 273, (2S)-4-(3,5-Dibromobenzoyl)-2-{5-methyl-[1,2,4]triazolo[1,5-a]pyrimidin-7-yl}morpholine] | >7 |
| Cc1cc([C@H]2CN(C(=O)c3cc(Br)cc(Br)c3)CC(F)(F)C2)n2ncnc2n1 [Example 274, (5R)-1-(3,5-Dibromobenzoyl)-3,3-difluoro-5-{5-methyl-[1,2,4]triazolo[1,5-a]pyrimidin-7-yl}piperidine] | >7 |
| Cc1cc([C@@H]2CN(C(=O)c3cc(Br)cc(Br)c3)CC(F)(F)C2)n2ncnc2n1 [Example 275, (5S)-1-(3,5-Dibromobenzoyl)-3,3-difluoro-5-{5-methyl-[1,2,4]triazolo[1,5-a]pyrimidin-7-yl}piperidine] | >7 |
| Cc1cc([C@@H]2CN(C(=O)c3cc(C(F)(F)F)cc(C(F)(F)F)c3)CC(F)(F)C2)n2ncnc2n1 [Example 276, (5S)-1-[3,5-Bis(trifluoromethyl)benzoyl]-3,3-difluoro-5-{5-methyl-[1,2,4]triazolo[1,5-a]pyrimidin-7-yl}piperidine] | >7 |
| Cc1cc(C)cc(C(=O)N2C[C@@H](c3cc(C)nc4ncnn34)CC(F)(F)C2)c1 [Example 277, (5S)-1-(3,5-Dimethylbenzoyl)-3,3-difluoro-5-{5-methyl-[1,2,4]triazolo[1,5-a]pyrimidin-7-yl}piperidine] | >7 |
| Cc1cc([C@@H]2CN(C(=O)c3cc(Cl)cc(Br)c3)CCO2)n2ncnc2n1 [Example 278, (2S)-4-(3-Bromo-5-chlorobenzoyl)-2-{5-methyl-[1,2,4]triazolo[1,5-a]pyrimidin-7-yl}morpholine] | >7 |
| Cc1cc([C@@H]2CN(C(=O)c3cc(F)cc(Br)c3)CCO2)n2ncnc2n1 [Example 279, (2S)-4-(3-Bromo-5-fluorobenzoyl)-2-{5-methyl-[1,2,4]triazolo[1,5-a]pyrimidin-7-yl}morpholine] | >7 |
| Cc1cc([C@@H]2CN(C(=O)c3ccc(Br)cc3)CC(F)(F)C2)n2ncnc2n1 [Example 281, (5S)-1-(4-Bromobenzoyl)-3,3-difluoro-5-{5-methyl-[1,2,4]triazolo[1,5-a]pyrimidin-7-yl}piperidine] | >7 |
